Results taken from article PMC3238500 (Archives of biochemistry and biophysics, 2011).

Sequences of proteins named here, by UniProt entry; tags and fusion partners are left off. Residues count along the entry.
UniProt Q2K340, 1-1154 R472S: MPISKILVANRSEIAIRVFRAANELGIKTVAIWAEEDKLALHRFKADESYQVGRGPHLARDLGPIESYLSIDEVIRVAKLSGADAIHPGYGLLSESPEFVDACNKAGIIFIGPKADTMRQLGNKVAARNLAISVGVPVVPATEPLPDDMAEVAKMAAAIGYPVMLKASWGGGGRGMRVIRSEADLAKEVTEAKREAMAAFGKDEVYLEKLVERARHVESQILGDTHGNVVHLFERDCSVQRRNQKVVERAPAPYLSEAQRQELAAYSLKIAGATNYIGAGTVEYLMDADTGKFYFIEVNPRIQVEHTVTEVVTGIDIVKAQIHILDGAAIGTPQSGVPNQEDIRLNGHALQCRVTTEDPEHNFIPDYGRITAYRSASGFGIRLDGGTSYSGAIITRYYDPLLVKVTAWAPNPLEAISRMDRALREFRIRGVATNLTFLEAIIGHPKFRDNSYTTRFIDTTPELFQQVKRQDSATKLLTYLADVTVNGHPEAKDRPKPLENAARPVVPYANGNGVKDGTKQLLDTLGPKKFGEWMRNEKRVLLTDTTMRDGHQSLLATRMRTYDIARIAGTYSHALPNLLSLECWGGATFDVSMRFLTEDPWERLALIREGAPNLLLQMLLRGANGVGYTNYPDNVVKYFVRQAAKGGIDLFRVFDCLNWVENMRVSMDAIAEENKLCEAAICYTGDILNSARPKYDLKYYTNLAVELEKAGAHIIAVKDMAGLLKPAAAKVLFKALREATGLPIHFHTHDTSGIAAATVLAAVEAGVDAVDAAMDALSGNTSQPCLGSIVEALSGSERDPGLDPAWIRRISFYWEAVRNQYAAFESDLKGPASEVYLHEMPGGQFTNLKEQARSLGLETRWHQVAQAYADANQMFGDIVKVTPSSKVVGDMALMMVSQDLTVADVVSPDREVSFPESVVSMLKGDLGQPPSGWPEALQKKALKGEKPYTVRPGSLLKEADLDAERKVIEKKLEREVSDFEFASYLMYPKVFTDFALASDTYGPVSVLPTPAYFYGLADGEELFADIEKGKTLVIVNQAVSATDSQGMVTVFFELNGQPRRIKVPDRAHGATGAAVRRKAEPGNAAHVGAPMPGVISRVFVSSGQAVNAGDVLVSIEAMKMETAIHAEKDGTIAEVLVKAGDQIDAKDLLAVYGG

Assays:
[1] = system: pyruvate carboxylase R472S mutant (RePC); experiment: biochemical; design: species or system Rhizobium etli
[2] = biological target: pyruvate carboxylase R472S mutant (RePC) (Rhizobium etli, UniProt Q2K340, R472S); experiment: biochemical
[3] = biological target: T1, pyruvate carboxylase (RePC) (Rhizobium etli, UniProt Q2K340); experiment: Stopped-flow fluorescence kinetics of MgTNP-ATP binding to pyruvate carboxylase
[4] = biological target: T1, pyruvate carboxylase (RePC); experiment: biochemical; details: KT (activation constant), activation by MgTNP-ATP in the absence of acetyl CoA, fit to equation (i), Fig. 4c
[5] = biological target: T1, pyruvate carboxylase (RePC); format: binding

## Nc1ncnc2c1ncn2[C@@H]1O[C@H](COP(=O)(O)OP(=O)(O)OP(=O)(O)O)[C@H]2OC3(O[C@H]21)C([N+](=O)[O-])=CC(=[N+]([O-])[O-])C=C3[N+](=O)[O-] (stereo partly shown) [MgTNP-ATP, 2′,3′-O-(2,4,6-trinitrophenyl) adenosine 5′-triphosphate]
[1]
  KT of R472S mutant relative to wild-type enzyme: 1.2-1.8 times
[2]
  EC50: 39 ± 8 µM
[3]; K1 (dissociation constant, k-1/k1), fast phase, fit to eq (v)
  Kd: 18 ± 1 µM
[3]; K2 (dissociation constant, k-2/k2), intermediate phase, fit to eq (ix)
  Kd: 21 ± 1 µM
[3]; K2 (dissociation constant, k-2/k2), intermediate phase, fit to eq (x)
  Kd: 24 ± 12 µM
[3]; read-out: k1, fast phase, fit to eq (v)
  kon: 8.7e+06 ± 800000 M⁻¹ s⁻¹
[3]; read-out: k2, intermediate phase, fit to eq (ix)
  kon: 500000 ± 20000 M⁻¹ s⁻¹
[3]; read-out: k2, intermediate phase, fit to eq (x)
  kon: 580000 ± 30000 M⁻¹ s⁻¹
[3]; read-out: k-1, fast phase, fit to eq (v)
  koff: 162 ± 19 s⁻¹
[3]; read-out: k-1, fast phase, fit to eq (vi)
  koff: 244 ± 5 s⁻¹
[4]
  EC50: 21 ± 3 µM
[5]; 5 μM MgTNP-ATP + 10 μM enzyme + 0.25 mM acetyl CoA
  fluorescence relative to MgTNP-ATP alone: 188%
[5]; 5 μM MgTNP-ATP + 10 μM enzyme + 0.25 mM acetyl CoA + 2.5 mM MgATP
  residual fluorescence relative to MgTNP-ATP alone: 164%

Where two headings read alike, the source gives them in different places.
